Results from article PMC2717937 (Journal of Experimental & Clinical Cancer Research : CR, 2009).

Imatinib in the brain within the first 5 minutes after administration (either group (vehicle or tariquidar pretreatment)): No imatinib was detectable | Brain Tmax (imatinib 50 mg/kg oral, vehicle 30 min before): after two hours
SMILES: Cc1ccc(NC(=O)c2ccc(CN3CCN(C)CC3)cc2)cc1Nc1nccc(-c2cccnc2)n1 [Imatinib, Imatinib mesylate]

Structures can show the parent of a compound that is named as a salt.
